## Measured vapor pressure values of organic chemicals

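These are experimental values that the OPERA curators gathered from public databases to train and test their QSAR models. One number stands for a compound and property, with no spread given. Method and conditions are not stated for these values. The measured form (salt, isomer or mixture) is not always the one drawn. Some entries may be limits or estimates that an upstream database listed as plain numbers.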

Vapor pressure is log10 of mmHg; the set covers 15 to 30 °C, mostly 20 to 25 °C.
Cells with "–" have no entry in this list.

compound,name,log VP (log10 mmHg)
CN(C)C(C)(C)CO,2-(Dimethylamino)-2-methylpropan-1-ol,0.733
N#Cc1ccccc1C#N,"1,2-Benzenedicarbonitrile",-1.474
O=C(Cl)C(F)(F)C(F)(F)C(F)(F)F,Heptafluorobutyryl Chloride,2.572
Clc1cc(Cl)c(-c2c(Cl)ccc(Cl)c2Cl)c(Cl)c1,"2,2',3,4',6,6'-Hexachlorobiphenyl",-4.514
OCc1cccnc1,Nicotinyl alcohol,-2.487
CC[Si](OC(C)=O)(OC(C)=O)OC(C)=O,Ethyltriacetoxysilane,-1.429
C=CCCCCCCCCCCCCCCCCCCCC,1-Docosene,-4.064
Nc1c(S(=O)(=O)[O-])cc(Nc2cccc(S(=O)(=O)CCOS(=O)(=O)[O-])c2)c2c1C(=O)c1ccccc1C2=O.[Na+].[Na+],Reactive Blue 19,-6.663
COCC(F)(F)C(F)(F)C(F)(F)F,"Methyl 2H,2H-perfluorobutyl ether",2.084
FC(F)(F)C(F)(I)C(F)(F)F,Heptafluoro-2-iodopropane,2.566
O=C(Cl)c1cc(Cl)c(Cl)c(Cl)c1Cl,–,-2.71
CC(C)CC(C)OC(=O)/C=C\C(=O)OC(C)CC(C)C (stereo partly drawn),"Bis(1,3-dimethylbutyl) maleate",-1.385
ON=Cc1ccccn1,N-[(Pyridin-2-yl)methylidene]hydroxylamine,-3.664
NCCC(=O)O,beta-Alanine,-7.296
Cc1c(Cl)cccc1Cl,"2,6-Dichlorotoluene",-0.593
Clc1cc(Cl)c(-c2c(Cl)cc(Cl)c(Cl)c2Cl)c(Cl)c1,"2,2',3,4,4',6,6'-Heptachlorobiphenyl",-4.907
COc1ccc(C)cc1,1-Methoxy-4-methylbenzene,-0.026
COc1c(O)c(OC)c(Cl)c(Cl)c1Cl,Trichlorosyringol,-3.235
O=C(O)c1ccccc1C(=O)c1ccc(Cl)cc1,"Benzoic acid, 2-(4-chlorobenzoyl)-",-7.777
CNc1ccc(Cc2ccc(NC)cc2)cc1,"Benzenamine, 4,4'-methylenebis[N-methyl-",-4.754
COc1ccc(Oc2ccc(NC(=O)N(C)C)cc2)cc1,Difenoxuron,-2.046
Clc1cc(Cl)c(-c2cccc(Cl)c2Cl)c(Cl)c1,"2,2',3,4',6'-Pentachlorobiphenyl",-4.275
C1=CC2C=CC1C2,"2,5-Norbornadiene",1.786
C1CCCCCCCCCCC1,Cyclododecane,-1.28
Clc1cc(-c2c(Cl)cc(Cl)c(Cl)c2Cl)cc(Cl)c1Cl,"2,3,3',4,4',5',6-Heptachlorobiphenyl",-5.666
CCC[Si](OC)(OC)OC,Trimethoxypropylsilane,1.035
CC(=O)c1cccc([N+](=O)[O-])c1,3-Nitroacetophenone,-4.415
Clc1cccc(-c2c(Cl)c(Cl)c(Cl)c(Cl)c2Cl)c1,"2,3,3',4,5,6-Hexachlorobiphenyl",-5.005
c1ccc(C(c2ccccc2)(c2ccccc2)N2CCOCC2)cc1,Trifenmorph,-6.854
C=CCOC(=O)CCCCC,Allyl hexanoate,0.305
OB(O)c1cccc(F)c1,3-Fluorophenylboronic acid,-8.259
C1CCC2=NCCCN2CC1,"1,8-Diazabicyclo[5.4.0]undec-7-ene",-1.736
CC(C)N=C=NC(C)C,Diisopropylcarbodiimide,0.708
CCCCOC(=O)/C=C\C(=O)O,Butyl hydrogen maleate,-2.824
CCCCCCCC(=O)NCCC[N+](C)(C)CC(=O)[O-],–,-5.084
C[C@@H]1O[C@@H](O[C@H]2[C@H](Oc3cc(O)c4c(c3)O[C@H](c3ccc(O)cc3)CC4=O)O[C@H](CO)[C@@H](O)[C@@H]2O)[C@H](O)[C@H](O)[C@H]1O,Naringin,-12.52
C[C@@H]1CNC[C@@H](C)O1 (relative stereo),"trans-2,6-Dimethylmorpholine",0.464
Cc1ccc(O)c(-n2nc3ccccc3n2)c1,2-(2H-Benzotriazol-2-yl)-4-methylphenol,-5.959
CC(C)(N=NC(C)(C)C(=N)N)C(=N)N.Cl.Cl,"2,2'-Azobis(2-amidinopropane) dihydrochloride",-7.201
C=C[Si](OCCOC)(OCCOC)OCCOC,Tris(2-methoxyethoxy)vinylsilane,-2.487
NC12CC3CC(CC(C3)C1)C2,Amantadine,0.958
CCCOC(=O)c1cc(O)c(O)c(O)c1,Gallic acid n-propyl ester,-6.389
Clc1cc(-c2cccc(Cl)c2Cl)cc(Cl)c1Cl,"2,3,3',4',5'-Pentachlorobiphenyl",-5.235
CC(CN)CCCN (centres undefined),2-Methylpentanediamine,-0.708
Clc1ccc(-c2c(Cl)cc(Cl)cc2Cl)c(Cl)c1,"2,2',4,4',6-Pentachlorobiphenyl",-4.215
CC1(C)[N-]C(=O)NC1=O.[Na+],"Sodium 5,5-dimethylhydantoin",-5.979
CCCCCCCCCCCC(=O)OCCS(=O)(=O)[O-].[Na+],"Dodecanoic acid, 2-sulfoethyl ester, sodium salt",-7.992

The 3 highest values of log VP among the entries above:

| compound | name | log VP (log10 mmHg) |
|---|---|---|
| O=C(Cl)C(F)(F)C(F)(F)C(F)(F)F | Heptafluorobutyryl Chloride | 2.572 |
| FC(F)(F)C(F)(I)C(F)(F)F | Heptafluoro-2-iodopropane | 2.566 |
| COCC(F)(F)C(F)(F)C(F)(F)F | Methyl 2H,2H-perfluorobutyl ether | 2.084 |

Values as listed in the OPERA 2.9 repository of K. Mansouri.